Screening data: PubChem, National Center for Advancing Translational Sciences (NCATS)
Rows were chosen to be rich in hits. Some 0.34% of all compounds tested hit in one or more screens of this group.
Eya2 inh: blocks the phosphatase activity of human Eya2 | O00167 | recombinant Eya2, OMFP fluorescence dephosphorylation (OMFP is methylfluorescein phosphate) | Potency, µM (doses to about 76.9 µM), actives largely listed as inhibitors | 330,000 tested, 0.006% active | AID 488837
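Eya2 protein (added as 0.2 uM solution) was preincubated with compound for 10 min at ambient temperature in 50 mM HEPES pH 7.5, 50 mM NaCl, 5 uM MgCl2, 0.05% BSA, 1 mM DTT. OMFP (added at 50 uM) then reacted 10 min; fluorescence read at 485/525 nm.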
ASM inhibitor: inhibitors of human secretory acid sphingomyelinase; 340,000 tested, 0.006% active; AID 504937; P17405; Potency, µM (highest dose often 57.5 µM), most hits filed as inhibitors; placental ASM, HMU-PC fluorogenic substrate, 60 min
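Fluorogenic HMU-PC substrate (9 uM final) is turned over by placental ASM in 60 min at 37 C after a 10 min compound preincubation. Reaction ended by alkaline stop (pH 10), with fluorescence read at 386/447 nm.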
Rango dissoc inh: inhibition of RanGTP-driven Rango-importin beta dissociation. Biochemical FRET Rango-importin beta, RanGTP-induced dissociation. Potency, µM (doses to about 46.1 µM). 340,000 tested, 0.071% active; calls by dose curve; also: nearly all actives have a fitted effect of over 45% in size
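Compounds sat 5 min at room temperature with 0.1 uM Rango biosensor plus 0.25 uM importin beta, then FRET pre-read. RanGTP-RCC1 (0.6 uM Ran, 2mM GTP, 0.2 uM RCC1) added for 45 min, and the CFP/YFP post-read measured blocked complex dissociation.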
Rango complex inh: Rango-importin beta binding inhibition; Q14974; Rango CFP/YFP FRET sensor + importin beta, 45 min; Potency, µM (highest dose often 92.2 µM); 340,000 tested, 0.031% active; calls by dose curve; also: nearly all actives have a fitted effect of over 15% in size
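Inhibition scored from the CFP 486 nm/YFP 530 nm FRET ratio 45 min after adding 0.125 microM importin beta to 50 nM Rango biosensor preincubated 5 min with compound (room temperature, PBS with DTT, Tween-20, BSA). No-importin wells as positive control.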
Vif-APOBEC3G blk: Vif-A3G binding inhibition; Q9HC16; HeLa A3G-eYFP + Vif (tagged APOBEC3G with the HIV-1 protein that degrades it), YFP fluorescence, overnight; Potency, µM (titrated, usually from 46.1 µM), hits mostly inhibitors; 410,000 tested, 0.076% active; AID 602310; also: nearly all actives have a fitted effect of over 60% in size
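HeLa cells stably expressing Vif and C-terminally eYFP-tagged A3G, seeded overnight at 37 deg C, then exposed to compound by pintool overnight at 37 deg C. Rise in yellow fluorescence (Ex 488/Em 500-530, Acumen) marks blocked Vif-driven A3G degradation.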
Vif-A3F inh: blocks the Vif interaction with APOBEC3F | HeLa A3F-eYFP + Vif (tagged APOBEC3F with the HIV-1 protein that degrades it), YFP fluorescence increase | Potency, µM (doses to about 46.1 µM) | 390,000 tested, 0.2% active | AID 602313; also: nearly all actives have a fitted effect of over 65% in size
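HeLa cells stably expressing Vif plus C-terminally eYFP-tagged A3F were seeded, incubated overnight at 37 deg C, dosed with compound, incubated overnight again at 37 deg C. Yellow fluorescence (Ex 488/Em 500-530) reported blocked Vif-mediated A3F-eYFP degradation.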
Numbers stand for hits; [ ] = another dose, or the depositor's remark. Unless noted, calls follow the shape of the dose curve; as a rule, active = well fitted curve in the direction sought with a large enough effect; inconclusive = small, poorly fitted or top-dose-only effect, or another doubt; inactive = no such curve, though single readings can be large; an effect the other way counts as inactive or inconclusive.

Screening CCOC(=O)C1=C(Cc2ccc(Cl)cc2)C(=O)c2ccccc2C1=O returned Eya2 inh inactive, ASM inhibitor inactive, Rango dissoc inh inconclusive, Rango complex inh inconclusive, Vif-APOBEC3G blk inconclusive and Vif-A3F inh 28µM.
For [O-][N+]12CCCc3cccc(c31)CCC2 the results were Vif-APOBEC3G blk inactive.
Screening CCc1ccc(NC(=O)CCNS(=O)(=O)c2ccc3c(c2)oc(=O)n3C)cc1 returned Vif-APOBEC3G blk inactive and Vif-A3F inh inactive.
`CS(=O)(=O)N1CCN(Cc2cc3nc(-c4cccc5[nH]ncc45)nc(N4CCOCC4)c3s2)CC1` gave Vif-APOBEC3G blk inactive.
Cc1cc(/C=C(\C#N)C(=O)NCc2ccccc2)cc(C)c1O was read as Eya2 inh inactive, ASM inhibitor inactive, Rango dissoc inh 6.5µM, Rango complex inh inconclusive, Vif-APOBEC3G blk inactive and Vif-A3F inh inactive.
Screening CCOCCCNC(=O)/C(C#N)=C/c1cc(C)c(O)c(C)c1 returned Eya2 inh inactive, ASM inhibitor inactive, Rango dissoc inh 26µM, Rango complex inh inconclusive, Vif-APOBEC3G blk inactive and Vif-A3F inh inactive.
CCN(CC)C(=O)Cn1cc(C(=O)C(=O)N2CCN(C)CC2)c2ccccc21 was read as Eya2 inh inactive, ASM inhibitor inactive, Rango dissoc inh inactive, Rango complex inh inactive, Vif-APOBEC3G blk inactive and Vif-A3F inh inactive.
Screening CCN(CC)C(=O)Cn1cc(C(=O)C(=O)N2CC=C(c3ccccc3)CC2)c2ccccc21 returned Eya2 inh inactive, ASM inhibitor inactive, Rango dissoc inh inactive, Rango complex inh 37µM, Vif-APOBEC3G blk inactive and Vif-A3F inh inconclusive.
CCCN(C(=O)CSc1n[nH]c(-c2ccc(OC)cc2)n1)c1c(N)n(Cc2ccccc2)c(=O)[nH]c1=O was read as Eya2 inh inactive, ASM inhibitor inactive, Rango dissoc inh inactive, Rango complex inh inactive, Vif-APOBEC3G blk inactive and Vif-A3F inh 25µM.
`COc1ccc(-c2nc(SCC(=O)N(CC(C)C)c3c(N)n(Cc4ccccc4)c(=O)[nH]c3=O)n[nH]2)cc1` gave Eya2 inh inactive, ASM inhibitor inactive, Rango dissoc inh inactive, Rango complex inh inactive, Vif-APOBEC3G blk inactive and Vif-A3F inh inactive.
`CCCN1C(=O)/C(=C\C=C2\N(CC)c3ccccc3C2(C)C)SC1=S` gave Eya2 inh inactive, ASM inhibitor inconclusive, Rango dissoc inh inactive, Rango complex inh inactive, Vif-APOBEC3G blk inconclusive and Vif-A3F inh 3.5µM.
CCCN1C(=O)/C(=C\C=C2/Sc3ccccc3N2CC)SC1=S was read as Eya2 inh inactive.
For CN1/C(=C\C=C2/SC(=S)NC2=O)C(C)(C)c2ccccc21 the results were Eya2 inh inconclusive, ASM inhibitor inactive, Rango dissoc inh inconclusive, Rango complex inh 23µM, Vif-APOBEC3G blk 7.9µM and Vif-A3F inh inconclusive.
Screening O=c1c2ccccc2[nH]c(=S)n1CCCN1CCOCC1 returned Eya2 inh inactive, ASM inhibitor inactive, Rango dissoc inh inactive, Rango complex inh inactive, Vif-APOBEC3G blk inactive and Vif-A3F inh inactive.
Screening N=C1c2c(cc(=O)n3c2[nH]c2ccccc23)CN1CCN1CCOCC1 returned Eya2 inh inactive, ASM inhibitor inactive, Rango dissoc inh 21µM[inhibitor], Rango complex inh inconclusive, Vif-APOBEC3G blk inactive and Vif-A3F inh inactive.
Screening CCOC(=O)c1c(C)n(-c2ccccc2)c2ccc(O)cc12 returned Eya2 inh inactive, ASM inhibitor inactive, Rango dissoc inh inactive, Rango complex inh inactive, Vif-APOBEC3G blk inactive and Vif-A3F inh inactive.
For CCOC(=O)c1c(CN(CC)CC)n(-c2ccccc2)c2ccc(O)cc12 the results were Eya2 inh inactive, ASM inhibitor inactive[11.5 µM], Rango dissoc inh inactive, Rango complex inh inactive, Vif-APOBEC3G blk 13µM and Vif-A3F inh inactive.
For Cc1ccc(NC(=O)Nc2ccc3c(c2)N(C)C(=O)CS3)nc1 the results were Eya2 inh inactive, ASM inhibitor inactive, Rango dissoc inh inactive, Rango complex inh inactive, Vif-APOBEC3G blk inactive and Vif-A3F inh inactive.
`Cc1ccnc(NC(=O)Nc2ccc3c(c2)N(C)C(=O)CS3)c1` gave Eya2 inh inactive, ASM inhibitor inactive, Rango dissoc inh inactive, Rango complex inh inactive, Vif-APOBEC3G blk inconclusive and Vif-A3F inh 25µM.
